Experimental findings from patent publication US20250154134A1, “COMPOUND AS FAK INHIBITOR AND USE THEREOF” (WIGEN BIOMEDICINE TECHNOLOGY (SHANGHAI) CO., LTD., priority 2022, published 2025) are described below.

Sequences of proteins named here, by UniProt entry; tags and fusion partners are left off.
UniProt Q05397, whole entry: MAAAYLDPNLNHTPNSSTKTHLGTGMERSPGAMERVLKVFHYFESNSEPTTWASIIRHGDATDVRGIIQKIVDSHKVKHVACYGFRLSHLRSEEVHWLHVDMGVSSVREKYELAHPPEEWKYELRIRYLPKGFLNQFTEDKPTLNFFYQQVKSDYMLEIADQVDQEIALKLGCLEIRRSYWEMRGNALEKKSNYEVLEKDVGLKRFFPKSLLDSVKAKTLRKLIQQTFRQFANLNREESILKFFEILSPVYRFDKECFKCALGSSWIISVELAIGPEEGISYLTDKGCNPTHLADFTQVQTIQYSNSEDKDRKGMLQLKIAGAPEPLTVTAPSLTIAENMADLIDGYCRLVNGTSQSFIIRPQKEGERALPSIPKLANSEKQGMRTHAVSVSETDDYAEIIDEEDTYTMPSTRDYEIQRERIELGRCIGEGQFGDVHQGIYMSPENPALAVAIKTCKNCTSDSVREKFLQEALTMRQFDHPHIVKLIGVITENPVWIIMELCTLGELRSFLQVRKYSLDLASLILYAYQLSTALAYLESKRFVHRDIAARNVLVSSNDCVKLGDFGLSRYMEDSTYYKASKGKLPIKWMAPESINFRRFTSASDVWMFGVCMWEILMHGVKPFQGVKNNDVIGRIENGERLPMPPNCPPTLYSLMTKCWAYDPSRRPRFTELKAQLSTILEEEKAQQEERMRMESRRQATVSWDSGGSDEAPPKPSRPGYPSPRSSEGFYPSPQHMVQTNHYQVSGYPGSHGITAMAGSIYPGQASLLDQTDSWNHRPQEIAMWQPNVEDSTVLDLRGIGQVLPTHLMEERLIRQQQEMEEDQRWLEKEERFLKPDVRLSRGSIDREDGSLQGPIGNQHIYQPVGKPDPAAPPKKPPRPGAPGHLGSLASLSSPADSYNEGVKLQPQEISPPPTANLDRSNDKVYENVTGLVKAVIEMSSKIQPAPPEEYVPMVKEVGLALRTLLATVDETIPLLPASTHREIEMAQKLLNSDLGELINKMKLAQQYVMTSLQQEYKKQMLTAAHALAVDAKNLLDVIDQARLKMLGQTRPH

In test [1] the target is FAK recombinant protein (Homo sapiens (Human), UniProt Q05397). The experiment in a line: Inhibitory activity against FAK enzyme (HTRF, TK substrate). Conditions: read-out: IC50 against FAK enzyme. On the technique in general: In TR-FRET formats the signal depends on donor and acceptor labels being close together.
Test [2] deals with PC3 cells. Nature of the test: PC3 cell proliferation, 2D activity assay (Cell Titer-Lumi, 72 h). Conditions: read-out: 2D inhibitory activity against PC3 cells IC50. The class given is cell-based, human.
Test [3] concerns PC3 cells. Nature of the test: PC3 cell proliferation, 3D activity assay (3D culture, 14 days). The class given is cell-based, human. Conditions: read-out: 3D inhibitory activity against PC3 cells IC50.

`COc1cc(N2CCC(N3CCN(C)CC3)C2)ccc1Nc1ncc(Cl)c(Oc2cccc3c2C(=O)N(C)C32CC2)n1` (centres unmarked): the values for the IC50 in test [1], in test [2] and in test [3] were less than 0.02 µM, more than 2 µM and less than 0.005 µM, respectively.

For `[2H]C([2H])([2H])N1CCC(NC(=O)c2ccc(Nc3ncc(C(F)(F)F)c(Oc4cccc5c4C(=O)N(C)C54CC4)n3)c(OC)c2)CC1`, the IC50 – broadly, the midpoint of a concentration-inhibition curve – was more than 2 µM in test [2] and less than 0.005 µM in test [3].
